“And” between values parts separate entries of the source, which are not always exact repeats. Equal values may be shown once. This is a selection; strong and weak results do not stand in their true shares.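 96-well plates, one dose, 48 hours. Percent growth reported; active if below 10.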 The source made the active and inactive calls.
Legend:
Experiment in all cases: NCI-60 one-dose screen, 48 h (100 = growth as untreated, 0 = no growth, -100 = all killed)
Settings in all cases: 10 µM unless noted
NCI-H23 lung = test system: NCI-H23 lung
NCI-H226 lung = test system: NCI-H226 lung
NCI-H322M lung = test system: NCI-H322M lung
HOP-62 NSCLC = test system: HOP-62 NSCLC
NCI-H460 lung = test system: NCI-H460 lung
HOP-92 NSCLC = test system: HOP-92 NSCLC
NCI-H522 lung = test system: NCI-H522 lung
A549/ATCC NSCLC = test system: A549/ATCC NSCLC
786-0 renal = test system: 786-0 renal
COLO 205 colon = test system: COLO 205 colon
DU-145 prostate = test system: DU-145 prostate
K-562 leukemia = test system: K-562 leukemia
MALME-3M melanoma = test system: MALME-3M melanoma
MDA-MB-231 breast = test system: MDA-MB-231 breast
RXF 393 renal = test system: RXF 393 renal
SF-268 CNS = test system: SF-268 CNS
SF-295 CNS = test system: SF-295 CNS
SF-539 CNS = test system: SF-539 CNS
UACC-257 melanoma = test system: UACC-257 melanoma
M14 melanoma = test system: M14 melanoma

Measured: growth

Cc1ccc(S(=O)(=O)n2cc([C@@]3(O)C[C@H](CC#N)OC3=O)c3ccccc32)cc1
active: NCI-H226 lung 5.51% | NCI-H460 lung 0.08% | HOP-92 NSCLC -39.2% | COLO 205 colon 5.25% | DU-145 prostate -48.5% | K-562 leukemia -2.96% | MDA-MB-231 breast -10.3% | SF-295 CNS -45.1% | SF-539 CNS -27.7%
inactive: NCI-H23 lung 27.2% | NCI-H322M lung 38.4% | HOP-62 NSCLC 26% | NCI-H522 lung 21.8% | A549/ATCC NSCLC 15.6% | 786-0 renal 17.8% | MALME-3M melanoma 22.8% | RXF 393 renal 12.8% | SF-268 CNS 26.9% | UACC-257 melanoma 75.9% | M14 melanoma 20.3%

Cn1c(=O)c2[nH]c(N(CCCl)CCCl)nc2n(C)c1=O
inactive: NCI-H23 lung 104% | NCI-H226 lung 97.1% | NCI-H322M lung 94% | HOP-62 NSCLC 102% | NCI-H460 lung 102% | HOP-92 NSCLC 99.3% | NCI-H522 lung 84.9% | A549/ATCC NSCLC 95% | 786-0 renal 96.8% | COLO 205 colon 106% | DU-145 prostate 106% | K-562 leukemia 104% | MALME-3M melanoma 96.3% | MDA-MB-231 breast 112% | RXF 393 renal 99.6% | SF-268 CNS 104% | SF-539 CNS 107% | UACC-257 melanoma 116% | M14 melanoma 109%

O=[N+]([O-])c1cc2cn[nH]c2cc1[N+](=O)[O-]
inactive: NCI-H23 lung 91.6% | NCI-H226 lung 91% | NCI-H322M lung 102% | HOP-62 NSCLC 102% | NCI-H460 lung 107% | HOP-92 NSCLC 95.5% | NCI-H522 lung 92.1% | A549/ATCC NSCLC 100% | 786-0 renal 113% | COLO 205 colon 106% | DU-145 prostate 127% | K-562 leukemia 103% | MALME-3M melanoma 103% | MDA-MB-231 breast 78.4% | RXF 393 renal 120% | SF-268 CNS 106% | SF-295 CNS 95.9% | SF-539 CNS 110% | UACC-257 melanoma 105% | M14 melanoma 110%

Cc1ccccc1C(=O)N(CCCl)CCCl
inactive: NCI-H23 lung 108% | NCI-H226 lung 93.8% | NCI-H322M lung 99% | HOP-62 NSCLC 106% | NCI-H460 lung 106% | HOP-92 NSCLC 84.8% | NCI-H522 lung 88.5% | A549/ATCC NSCLC 105% | 786-0 renal 105% | COLO 205 colon 118% | DU-145 prostate 125% | K-562 leukemia 100% | MALME-3M melanoma 101% | MDA-MB-231 breast 112% | RXF 393 renal 89.4% | SF-268 CNS 111% | SF-539 CNS 100% | UACC-257 melanoma 99.6% | M14 melanoma 107%

CCCCOP(N)(=O)OCCCC
inactive: NCI-H23 lung 106% | NCI-H226 lung 101% | NCI-H322M lung 98.8% | HOP-62 NSCLC 108% | NCI-H460 lung 108% | HOP-92 NSCLC 99.2% | NCI-H522 lung 89.7% | A549/ATCC NSCLC 104% | 786-0 renal 106% | COLO 205 colon 107% | DU-145 prostate 110% | K-562 leukemia 116% | MALME-3M melanoma 98.1% | MDA-MB-231 breast 101% | RXF 393 renal 110% | SF-268 CNS 115% | SF-295 CNS 111% | SF-539 CNS 99.2% | UACC-257 melanoma 95.1% | M14 melanoma 98.7%

CN(C)C(=O)NP(=O)(N(C)C)N(C)C
inactive: NCI-H23 lung 97.6% | NCI-H226 lung 99.3% | NCI-H322M lung 112% | HOP-62 NSCLC 115% | NCI-H460 lung 113% | HOP-92 NSCLC 100% | NCI-H522 lung 107% | A549/ATCC NSCLC 97% | 786-0 renal 106% | COLO 205 colon 105% | DU-145 prostate 107% | K-562 leukemia 95.8% | MALME-3M melanoma 96.6% | MDA-MB-231 breast 101% | RXF 393 renal 105% | SF-268 CNS 104% | SF-295 CNS 103% | SF-539 CNS 97.4% | M14 melanoma 110%

O=C(OCCNCCCl)c1ccccc1
inactive: NCI-H23 lung 109% | NCI-H226 lung 97.4% | NCI-H322M lung 106% | HOP-62 NSCLC 108% | NCI-H460 lung 103% | HOP-92 NSCLC 101% | NCI-H522 lung 103% | A549/ATCC NSCLC 101% | 786-0 renal 102% | COLO 205 colon 123% | DU-145 prostate 114% | K-562 leukemia 106% | MALME-3M melanoma 101% | MDA-MB-231 breast 114% | RXF 393 renal 114% | SF-268 CNS 113% | SF-539 CNS 101% | UACC-257 melanoma 97.7% | M14 melanoma 102%

CCCC1OP(N)(=O)OCC1CC (stereo not given)
inactive: NCI-H23 lung 109% and 94.6% | NCI-H226 lung 99.9% and 92.7% | NCI-H322M lung 105% and 102% | HOP-62 NSCLC 110% and 109% | NCI-H460 lung 115% and 95.2% | HOP-92 NSCLC 95% and 84.1% | NCI-H522 lung 86.2% | A549/ATCC NSCLC 105% and 104% | 786-0 renal 113% and 97.6% | COLO 205 colon 105% and 108% | DU-145 prostate 115% and 98.1% | K-562 leukemia 107% and 143% | MALME-3M melanoma 134% and 95% | MDA-MB-231 breast 102% and 108% | RXF 393 renal 118% and 104% | SF-268 CNS 104% and 95.3% | SF-295 CNS 114% and 105% | SF-539 CNS 115% and 98.5% | UACC-257 melanoma 108% and 110% | M14 melanoma 105% and 88.7%

CC(Cl)CN(CC(C)Cl)C(=O)OCC(N)C(=O)O (stereo not given)
inactive: NCI-H23 lung 102% and 65.1% | NCI-H226 lung 98.5% and 93.1% | NCI-H322M lung 121% and 102% | HOP-62 NSCLC 92.8% and 107% | NCI-H460 lung 109% and 111% | HOP-92 NSCLC 94.9% | NCI-H522 lung 88.9% and 110% | A549/ATCC NSCLC 102% | 786-0 renal 104% and 96.3% | COLO 205 colon 96.5% and 106% | DU-145 prostate 125% and 123% | K-562 leukemia 109% and 108% | MALME-3M melanoma 115% and 112% | MDA-MB-231 breast 103% and 112% | RXF 393 renal 115% | SF-268 CNS 108% and 106% | SF-295 CNS 113% and 91.1% | SF-539 CNS 111% and 112% | UACC-257 melanoma 101% | M14 melanoma 98.3% and 105%

Cc1ccc(OP(=O)(Nc2ccc([N+](=O)[O-])cn2)Oc2ccc(C)cc2)cc1
inactive: NCI-H23 lung 99% | NCI-H226 lung 144% | NCI-H322M lung 106% | HOP-62 NSCLC 113% | NCI-H460 lung 100% | HOP-92 NSCLC 80.6% | NCI-H522 lung 67.1% | A549/ATCC NSCLC 96.2% | 786-0 renal 93.6% | COLO 205 colon 127% | DU-145 prostate 116% | K-562 leukemia 98% | MALME-3M melanoma 117% | MDA-MB-231 breast 88.6% | RXF 393 renal 46.5% | SF-268 CNS 98.7% | SF-295 CNS 124% | SF-539 CNS 104% | UACC-257 melanoma 90.2% | M14 melanoma 97.9%

CCN(CCCl)CC1OC(O)C(O)C1O (stereo not given)
inactive: NCI-H23 lung 116% | NCI-H226 lung 106% | NCI-H322M lung 111% | HOP-62 NSCLC 101% | NCI-H460 lung 103% | HOP-92 NSCLC 79.7% | A549/ATCC NSCLC 102% | 786-0 renal 105% | COLO 205 colon 128% | DU-145 prostate 121% | K-562 leukemia 103% | MALME-3M melanoma 115% | MDA-MB-231 breast 107% | RXF 393 renal 116% | SF-268 CNS 113% | SF-295 CNS 88.3% | SF-539 CNS 107% | UACC-257 melanoma 108% | M14 melanoma 108%

O=[As](O)(c1ccc(Cl)cc1)C1CCCCC1O (stereo not given)
inactive: NCI-H23 lung 95.6% | NCI-H226 lung 95% | NCI-H322M lung 123% | HOP-62 NSCLC 99.2% | NCI-H460 lung 114% | HOP-92 NSCLC 60.9% | NCI-H522 lung 58.3% | A549/ATCC NSCLC 96.7% | 786-0 renal 88.7% | COLO 205 colon 108% | DU-145 prostate 107% | K-562 leukemia 80% | MDA-MB-231 breast 93.6% | RXF 393 renal 87.1% | SF-268 CNS 90.7% | SF-539 CNS 94.7% | UACC-257 melanoma 101% | M14 melanoma 104%

O=C(O)/C=C\c1cccc(N(CCCl)CCCl)c1
inactive: NCI-H23 lung 110% | NCI-H226 lung 103% | NCI-H322M lung 110% | HOP-62 NSCLC 107% | NCI-H460 lung 97.2% | HOP-92 NSCLC 78.4% | A549/ATCC NSCLC 97.5% | 786-0 renal 109% | COLO 205 colon 122% | DU-145 prostate 117% | K-562 leukemia 106% | MALME-3M melanoma 113% | MDA-MB-231 breast 100% | RXF 393 renal 112% | SF-268 CNS 108% | SF-295 CNS 93.8% | SF-539 CNS 106% | UACC-257 melanoma 108% | M14 melanoma 106%

CCN(CC)CCOC(=O)C(O)(c1cccc(OC)c1OC)c1cccc(OC)c1OC
inactive: NCI-H23 lung 103% | NCI-H226 lung 87.9% | NCI-H322M lung 101% | HOP-62 NSCLC 88% | NCI-H460 lung 98.9% | HOP-92 NSCLC 84.1% | NCI-H522 lung 73.4% | A549/ATCC NSCLC 90.1% | 786-0 renal 101% | DU-145 prostate 107% | K-562 leukemia 119% | MALME-3M melanoma 105% | MDA-MB-231 breast 106% | RXF 393 renal 112% | SF-268 CNS 102% | SF-295 CNS 98.9% | SF-539 CNS 101% | UACC-257 melanoma 92.6% | M14 melanoma 95.5%

COC1OC(CNCCCl)C2OC(C)(C)OC12 (stereo not given)
inactive: NCI-H23 lung 97.3% | NCI-H226 lung 100% | NCI-H322M lung 134% | HOP-62 NSCLC 103% | NCI-H460 lung 100% | HOP-92 NSCLC 145% | NCI-H522 lung 91.8% | A549/ATCC NSCLC 106% | 786-0 renal 96.8% | COLO 205 colon 102% | DU-145 prostate 126% | K-562 leukemia 133% | MALME-3M melanoma 143% | MDA-MB-231 breast 111% | SF-268 CNS 113% | SF-295 CNS 112% | SF-539 CNS 98.2% | UACC-257 melanoma 93.9% | M14 melanoma 103%
